Measurements reported in paper PMC9095466 (Nature, 2022).

System: SARS-CoV-2 (USA-WA1/2020, lineage A)
Assay: K18-hACE2 mouse model of SARS-CoV-2, H&E histopathology of lung and brain
Settings: individual mice, 8-day regimen, most severely affected vessel

| Compound | Perivascular infiltrates in CNS score |
| --- | --- |
| CS(=O)(=O)NC(CCC(N)=O)C(=O)NC(Cc1ccccc1)C(=O)NC(CCCNC(=N)N)C(O)c1nc2ccccc2s1 (centres unmarked) [N-0385(OH), Ms-QFR-Kbt(OH)] | 3 ((3) complete cuff two to three cells thick) |
| CS(=O)(=O)NC(CCC(N)=O)C(=O)NC(Cc1ccccc1)C(=O)NC(CCCNC(=N)N)C(=O)c1nc2ccccc2s1 (centres unmarked) [Compound N-0385, Ms-QFR-kbt] | 3 ((3) complete cuff two to three cells thick) |
